The source of these data is ChEMBL document CHEMBL4152384, “Pyrtriazoles, a Novel Class of Store-Operated Calcium Entry Modulators: Discovery, Biological Profiling, and in Vivo Proof-of-Concept Efficacy in Acute Pancreatitis” (J Med Chem, 2018).

Protein sequences, listed by entry. Tags and fused reporters are not part of them. Lines headed by an entry give the natural chain unless they say otherwise; changes in a name come on top.
UniProt Q13586, whole entry: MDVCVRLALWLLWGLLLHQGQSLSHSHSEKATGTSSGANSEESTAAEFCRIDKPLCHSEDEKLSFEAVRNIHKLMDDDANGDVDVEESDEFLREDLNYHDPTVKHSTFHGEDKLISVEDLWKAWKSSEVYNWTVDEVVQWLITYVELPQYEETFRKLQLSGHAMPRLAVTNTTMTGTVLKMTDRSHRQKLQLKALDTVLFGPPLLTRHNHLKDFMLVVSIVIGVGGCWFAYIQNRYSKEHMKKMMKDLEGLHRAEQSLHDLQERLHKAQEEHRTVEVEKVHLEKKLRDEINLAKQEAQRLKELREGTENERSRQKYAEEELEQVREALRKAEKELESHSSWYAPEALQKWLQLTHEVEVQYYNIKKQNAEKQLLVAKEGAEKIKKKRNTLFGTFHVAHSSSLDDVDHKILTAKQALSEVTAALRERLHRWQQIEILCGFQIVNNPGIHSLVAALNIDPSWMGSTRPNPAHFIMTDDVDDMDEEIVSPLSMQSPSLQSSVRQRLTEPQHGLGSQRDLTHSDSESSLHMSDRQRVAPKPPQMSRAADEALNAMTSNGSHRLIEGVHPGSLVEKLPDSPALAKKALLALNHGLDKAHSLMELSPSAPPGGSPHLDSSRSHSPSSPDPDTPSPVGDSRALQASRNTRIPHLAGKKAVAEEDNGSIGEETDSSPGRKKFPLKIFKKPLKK
UniProt Q96D31, whole entry: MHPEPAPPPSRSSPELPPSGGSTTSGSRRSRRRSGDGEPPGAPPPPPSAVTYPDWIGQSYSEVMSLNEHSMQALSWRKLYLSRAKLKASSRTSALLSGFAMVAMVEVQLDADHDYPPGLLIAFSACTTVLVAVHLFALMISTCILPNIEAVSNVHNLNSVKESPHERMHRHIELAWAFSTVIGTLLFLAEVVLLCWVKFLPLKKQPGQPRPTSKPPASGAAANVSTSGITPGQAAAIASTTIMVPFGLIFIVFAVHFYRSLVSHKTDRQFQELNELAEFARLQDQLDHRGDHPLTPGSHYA
UniProt Q9P246, whole entry: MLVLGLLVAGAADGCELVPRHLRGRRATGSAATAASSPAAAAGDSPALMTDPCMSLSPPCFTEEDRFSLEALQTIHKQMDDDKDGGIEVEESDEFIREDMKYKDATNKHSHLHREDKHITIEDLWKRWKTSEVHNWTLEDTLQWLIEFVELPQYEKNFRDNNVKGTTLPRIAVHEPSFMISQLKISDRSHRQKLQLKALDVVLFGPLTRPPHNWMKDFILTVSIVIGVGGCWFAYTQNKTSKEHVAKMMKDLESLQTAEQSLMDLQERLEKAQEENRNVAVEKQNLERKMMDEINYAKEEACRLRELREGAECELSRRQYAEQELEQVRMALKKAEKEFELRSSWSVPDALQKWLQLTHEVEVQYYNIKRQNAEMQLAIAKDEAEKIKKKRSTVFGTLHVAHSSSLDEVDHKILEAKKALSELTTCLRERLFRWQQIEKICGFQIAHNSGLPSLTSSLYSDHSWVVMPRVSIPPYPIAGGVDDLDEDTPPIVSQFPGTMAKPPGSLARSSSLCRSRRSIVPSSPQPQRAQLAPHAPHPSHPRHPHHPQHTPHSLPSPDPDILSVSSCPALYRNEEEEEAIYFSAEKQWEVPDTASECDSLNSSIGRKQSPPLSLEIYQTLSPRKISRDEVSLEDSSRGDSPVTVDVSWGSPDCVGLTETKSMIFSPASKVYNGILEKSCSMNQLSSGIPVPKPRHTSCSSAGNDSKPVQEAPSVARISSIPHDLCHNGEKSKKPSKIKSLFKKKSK
UniProt P48995: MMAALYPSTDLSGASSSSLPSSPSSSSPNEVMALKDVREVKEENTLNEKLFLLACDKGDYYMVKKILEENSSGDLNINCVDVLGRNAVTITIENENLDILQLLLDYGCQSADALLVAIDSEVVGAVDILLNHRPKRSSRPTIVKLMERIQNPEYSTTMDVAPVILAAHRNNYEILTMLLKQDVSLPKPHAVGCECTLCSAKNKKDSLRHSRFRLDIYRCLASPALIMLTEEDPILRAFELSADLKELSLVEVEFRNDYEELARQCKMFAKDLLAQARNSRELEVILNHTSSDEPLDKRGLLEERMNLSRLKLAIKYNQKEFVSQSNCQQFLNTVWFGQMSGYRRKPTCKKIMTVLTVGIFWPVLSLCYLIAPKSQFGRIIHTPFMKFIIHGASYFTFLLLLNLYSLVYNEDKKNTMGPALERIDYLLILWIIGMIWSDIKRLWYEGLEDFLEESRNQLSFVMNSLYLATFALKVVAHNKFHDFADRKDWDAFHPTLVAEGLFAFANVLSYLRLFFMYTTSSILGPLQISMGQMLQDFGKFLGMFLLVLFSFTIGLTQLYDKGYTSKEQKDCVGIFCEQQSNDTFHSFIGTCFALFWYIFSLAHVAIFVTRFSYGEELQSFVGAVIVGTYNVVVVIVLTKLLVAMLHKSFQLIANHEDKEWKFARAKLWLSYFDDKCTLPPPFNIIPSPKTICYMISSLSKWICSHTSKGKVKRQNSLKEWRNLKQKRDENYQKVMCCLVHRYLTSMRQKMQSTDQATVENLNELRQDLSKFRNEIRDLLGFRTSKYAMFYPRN
UniProt Q13507: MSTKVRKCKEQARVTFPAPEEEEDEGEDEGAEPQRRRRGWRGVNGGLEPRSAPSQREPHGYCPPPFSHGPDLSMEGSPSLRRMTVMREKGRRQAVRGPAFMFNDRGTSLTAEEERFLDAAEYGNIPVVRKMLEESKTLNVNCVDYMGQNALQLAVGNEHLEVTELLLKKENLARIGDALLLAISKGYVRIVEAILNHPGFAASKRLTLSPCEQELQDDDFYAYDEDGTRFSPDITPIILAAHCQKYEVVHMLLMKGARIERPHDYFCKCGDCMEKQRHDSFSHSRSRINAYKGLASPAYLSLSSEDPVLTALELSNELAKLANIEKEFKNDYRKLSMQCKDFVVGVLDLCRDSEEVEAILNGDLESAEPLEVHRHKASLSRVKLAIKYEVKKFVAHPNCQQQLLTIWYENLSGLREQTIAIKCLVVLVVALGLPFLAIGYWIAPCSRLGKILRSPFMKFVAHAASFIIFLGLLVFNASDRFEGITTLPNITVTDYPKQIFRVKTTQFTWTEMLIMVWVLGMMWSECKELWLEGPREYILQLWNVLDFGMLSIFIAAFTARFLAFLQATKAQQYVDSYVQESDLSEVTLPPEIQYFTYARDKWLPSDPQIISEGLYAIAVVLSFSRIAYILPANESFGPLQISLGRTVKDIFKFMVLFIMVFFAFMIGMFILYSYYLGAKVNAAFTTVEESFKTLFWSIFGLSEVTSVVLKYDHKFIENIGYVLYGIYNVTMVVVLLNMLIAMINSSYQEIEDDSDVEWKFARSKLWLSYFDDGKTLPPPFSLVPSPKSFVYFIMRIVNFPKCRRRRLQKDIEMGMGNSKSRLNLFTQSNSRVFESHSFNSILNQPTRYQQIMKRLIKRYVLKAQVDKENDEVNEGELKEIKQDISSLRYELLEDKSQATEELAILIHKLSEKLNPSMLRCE

The target in test [1] is Stromal interaction molecule 1 & 2/Calcium release-activated calcium channel protein 1 (Homo sapiens, UniProt Q13586+Q96D31+Q9P246). In words: Inhibition of STIM1/STIM2/Orai1 (unknown origin) expressed in mouse BV2 cells assessed as reduction of store-operated calcium entry at 100 uM preincubated for 30 mins followed by tBhQ, mediated Ca2+ depletion and re-addition measured for 600 secs by Fluo-4 AM-based fluorometric assay. It is filed as cell-based.

Test [2] has as its target Short transient receptor potential channel 1 & 3/Stromal interaction molecule 1/Calcium release-activated calcium channel protein 1 (Homo sapiens, UniProt P48995+Q13507+Q13586+Q96D31). In words: Modulation of TRPC1/TRPC3/STIM1/Orai1 in HEK cells assessed as induction of store-operated calcium entry by measuring residual activity preincubated for 30 mins followed by tBhQ-mediated Ca2+ depletion and Ca2+ re-addition to extracellular solution measured for 600 secs by Fluo-4 AM-based fluorometric assay relative to control. The class given is cell-based.

Consider `CCOC(=O)c1cnn(-c2ccc(NC(=O)C(Cl)=C(Cl)Cl)cc2)c1C(F)(F)F`, for which the IC50 in test [1] is 2900 nM; in test [2], 500 nM.

Usually IC50 stands for the midpoint of a concentration-inhibition curve.
